Assay results reported in paper PMC2559975 (Journal of medicinal chemistry, 2008).

Target: T1, rhGAR Tfase (Homo sapiens, UniProt P22102)
T1 sequence (P22102 808-1010 limits assumed): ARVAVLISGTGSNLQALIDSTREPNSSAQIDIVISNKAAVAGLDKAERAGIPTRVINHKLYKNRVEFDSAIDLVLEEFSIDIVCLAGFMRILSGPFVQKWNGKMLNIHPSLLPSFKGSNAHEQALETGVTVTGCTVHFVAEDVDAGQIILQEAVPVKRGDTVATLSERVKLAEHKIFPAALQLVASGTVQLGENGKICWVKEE
Test: GAR Tfase enzyme inhibition assay
Format: biochemical

- Ki: 30 nM
Structure (SMILES): Nc1nc(N)c(CCCC(C(=O)C(F)(F)F)c2ccc(C(=O)N[C@@H](CCC(=O)O)C(=O)O)cc2)c(=O)[nH]1 (stereo partly shown) [Compound 2, 10-CF3CO-DDACTHF, reference compound]
